Target: PDZ1/2 domain
Test: SPR, Biacore 3000; PDZ1/2 amine-coupled to the chip, peptide as analyte, 1:1 binding model

B1: chimeric peptide P5 (peptide)
peptide: YGRKKRRQRRRYEKLLDTEI
modifications: not checked
How did the Kd turn out when B1 was run?
The Kd was 29.9 nM.
